This note sets out measurements from BindingDB's records for doi:10.1124/jpet.104.066761 (National Institutes of Health, 2004).

The test concerns the target Gastrin-releasing peptide receptor (Homo sapiens) (UniProt P30550).

Take `CSCC[C@H](NC(=O)[C@H](Cc1ccccc1)NC(=O)[C@H](Cc1cnc[nH]1)NC(=O)CNC(=O)[C@@H](NC(=O)[C@H](C)NC(=O)[C@H](Cc1c[nH]c2ccccc12)NC(=O)[C@H](CC(C)C)NC(=O)[C@H](CC(N)=O)NC(=O)CN)[C@@H](C)O)C(N)=O` [NMB]: the affinity corresponds to a Ki of 97 nM.
